The values that follow come from patent EP4644396A1 (Visionpharma (Nantong) Co., Ltd, priority 2022, dated 2024).

The test has as its target T1, human TLR7 (Homo sapiens, UniProt Q9NYK1).
T1 sequence (Q9NYK1 27-1049): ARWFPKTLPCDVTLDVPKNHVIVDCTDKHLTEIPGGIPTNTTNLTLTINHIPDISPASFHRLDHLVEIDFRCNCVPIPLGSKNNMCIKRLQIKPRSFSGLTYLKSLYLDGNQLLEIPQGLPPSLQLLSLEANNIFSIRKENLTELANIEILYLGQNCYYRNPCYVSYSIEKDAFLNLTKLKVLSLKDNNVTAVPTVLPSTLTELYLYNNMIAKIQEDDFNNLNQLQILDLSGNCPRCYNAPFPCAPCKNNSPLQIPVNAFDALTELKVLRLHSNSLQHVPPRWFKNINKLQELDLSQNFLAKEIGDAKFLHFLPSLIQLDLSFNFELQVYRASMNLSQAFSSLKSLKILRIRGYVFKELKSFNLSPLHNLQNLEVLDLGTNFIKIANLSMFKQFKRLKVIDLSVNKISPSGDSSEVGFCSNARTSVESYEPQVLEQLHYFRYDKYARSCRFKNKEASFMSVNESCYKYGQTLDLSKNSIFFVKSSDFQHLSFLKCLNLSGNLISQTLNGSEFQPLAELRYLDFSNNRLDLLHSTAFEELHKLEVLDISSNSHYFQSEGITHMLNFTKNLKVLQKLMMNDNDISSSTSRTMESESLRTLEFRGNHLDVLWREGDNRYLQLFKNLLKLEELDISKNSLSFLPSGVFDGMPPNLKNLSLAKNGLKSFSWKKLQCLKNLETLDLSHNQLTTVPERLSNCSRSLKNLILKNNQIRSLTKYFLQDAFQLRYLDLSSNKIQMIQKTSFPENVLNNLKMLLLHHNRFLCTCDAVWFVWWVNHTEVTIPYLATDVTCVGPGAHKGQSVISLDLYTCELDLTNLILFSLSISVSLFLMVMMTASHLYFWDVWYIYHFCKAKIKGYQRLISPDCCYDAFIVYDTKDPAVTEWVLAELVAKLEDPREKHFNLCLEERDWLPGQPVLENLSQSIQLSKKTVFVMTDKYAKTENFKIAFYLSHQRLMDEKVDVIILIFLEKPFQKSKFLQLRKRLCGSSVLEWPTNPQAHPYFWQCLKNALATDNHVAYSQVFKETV
The test is described as follows: HEK-Blue hTLR7 SEAP reporter gene inhibition assay. In kind it is cell-based. The following applies: hTLR7 HEK-Blue cells, TLR7 ligand Gardiquimod 10 µM, 20 hours, SEAP by Quanti-blue; class symbols. On the procedure: HEK-Blue cells with stable expression of human TLR7 or TLR8 were used in the evaluation of inhibitory activity of compounds in the present invention against TLR7 or TLR8, by using its ability to induce the SEAP reporting gene under the control of the fusion of IFN-β minimum promoters into five NF-κB and ap-1 binding sites, as follows: hTLR7 HEK-Blue cells (Invivogen, 80, 000 cells per well) or hTLR8 HEK-Blue cells (60, 000 cells per well) were added to a 96-well cell culture plate. A solution of the testing compounds were added to each well, with the final concentration of tested compounds in the medium ranged from 0.001 to 36 µM and the culture was incubated for 15 minutes. M5049 was used as positive controls in the testing.
Then a TLR7 ligand (Gardiquimod, purchased from MedChemExpress, with final concentration of ligand in cell culture medium kept at 10 µM) or a TLR8 ligand (purchased from MedChemExpress with final concentration in cell culture media at 10 µM) and the culture was incubated for 20 hours. According to the manufacturer's instructions, a HEK-Blue reagent Quanti-blue (Invivogen) was used to detect the SEAP levels in cell cultures. The half […] concentration or IC50 was calculated by using GraphPad Prism. The IC50 values were defined as A and B (Against hTLR7 EC50(µM): A < 0.05 µM, B > 0.05 µM; against hTLR8 EC 50(µM): A < = 0.1 µM, B > 0.1 µM; -, as untested). […]
On the technique in general: In a reporter assay the amount or activity of a reporter protein is the signal.

In general, IC50 refers to the midpoint of a concentration-inhibition curve. A lower IC50 goes with higher potency. As to “3-Fluoro-4-((4R,9S)-8-(2-(4-(2-hydroxyethyl)pyridoxine-1-yl)-2-oxyethyl)-4,9-dimethyl-3,4,7,8,9,10-hydropyridote [3 ', 4 ': 3, 4] pyrazole [1, 5-a] pyrazine-2 (1 H) - yl) pyrazole [1, 5-a] pyridine-7-nitrile [Example I-130]”, the IC50 is < 50 nM.
